According to ChEMBL document CHEMBL6083227, “Novel sulfonamides unveiled as potent anti-lung cancer agents via tumor pyruvate kinase M2 activation” (RSC Med Chem, 2024):

System: A549
Assay: Induction of apoptosis in human A549 cells assessed as viable cells at IC50 incubated for 24 hrs by Annexin V-FITC/PI staining based flow cytometry (reference value: 91.838 %)
Assay type: functional

O=C(CN1CCN(S(=O)(=O)c2ccccc2)CC1)c1cnc2ncccn12 was tested. Which Activity did it give?
Its Activity is 56.432%.
